± gives the uncertainty stated by the source.
Experiment: xn = mol fraction of the nth substance listed
Conditions: 100 kPa

Compound: CCC[N+](CCC)(CCC)CCC.F[B-](F)(F)F + CC#N
- viscosity (293.15 K, x1 = 0.004109): 0.418 ± 0.009 mPa·s
- viscosity (293.15 K, x1 = 0.008148): 0.439 ± 0.009 mPa·s
- viscosity (293.15 K, x1 = 0.01217): 0.458 ± 0.01 mPa·s
- viscosity (293.15 K, x1 = 0.01616): 0.483 ± 0.01 mPa·s
- viscosity (293.15 K, x1 = 0.02022): 0.501 ± 0.011 mPa·s
- viscosity (293.15 K, x1 = 0.02407): 0.526 ± 0.011 mPa·s
- viscosity (293.15 K, x1 = 0.02797): 0.545 ± 0.012 mPa·s
- viscosity (293.15 K, x1 = 0.03172): 0.569 ± 0.012 mPa·s
- viscosity (293.15 K, x1 = 0.03563): 0.591 ± 0.013 mPa·s
- viscosity (293.15 K, x1 = 0.03955): 0.617 ± 0.013 mPa·s
- viscosity (298.15 K, x1 = 0.004109): 0.399 ± 0.009 mPa·s
- viscosity (298.15 K, x1 = 0.008148): 0.419 ± 0.009 mPa·s
- viscosity (298.15 K, x1 = 0.01217): 0.438 ± 0.009 mPa·s
- viscosity (298.15 K, x1 = 0.01616): 0.458 ± 0.01 mPa·s
- viscosity (298.15 K, x1 = 0.02022): 0.478 ± 0.01 mPa·s
- viscosity (298.15 K, x1 = 0.02407): 0.498 ± 0.011 mPa·s
- viscosity (298.15 K, x1 = 0.02797): 0.52 ± 0.011 mPa·s
- viscosity (298.15 K, x1 = 0.03172): 0.541 ± 0.012 mPa·s
- viscosity (298.15 K, x1 = 0.03563): 0.563 ± 0.012 mPa·s
- viscosity (298.15 K, x1 = 0.03955): 0.586 ± 0.012 mPa·s
- viscosity (303.15 K, x1 = 0.004109): 0.381 ± 0.008 mPa·s
- viscosity (303.15 K, x1 = 0.008148): 0.398 ± 0.008 mPa·s
- viscosity (303.15 K, x1 = 0.01217): 0.416 ± 0.009 mPa·s
- viscosity (303.15 K, x1 = 0.01616): 0.438 ± 0.009 mPa·s
- viscosity (303.15 K, x1 = 0.02022): 0.454 ± 0.01 mPa·s
- viscosity (303.15 K, x1 = 0.02407): 0.475 ± 0.01 mPa·s
- viscosity (303.15 K, x1 = 0.02797): 0.491 ± 0.01 mPa·s
- viscosity (303.15 K, x1 = 0.03172): 0.512 ± 0.011 mPa·s
- viscosity (303.15 K, x1 = 0.03563): 0.531 ± 0.011 mPa·s
- viscosity (303.15 K, x1 = 0.03955): 0.554 ± 0.012 mPa·s
- viscosity (308.15 K, x1 = 0.004109): 0.365 ± 0.008 mPa·s
- viscosity (308.15 K, x1 = 0.008148): 0.38 ± 0.008 mPa·s
- viscosity (308.15 K, x1 = 0.01217): 0.397 ± 0.008 mPa·s
- viscosity (308.15 K, x1 = 0.01616): 0.419 ± 0.009 mPa·s
- viscosity (308.15 K, x1 = 0.02022): 0.433 ± 0.009 mPa·s
- viscosity (308.15 K, x1 = 0.02407): 0.454 ± 0.01 mPa·s
- viscosity (308.15 K, x1 = 0.02797): 0.467 ± 0.01 mPa·s
- viscosity (308.15 K, x1 = 0.03172): 0.487 ± 0.01 mPa·s
- viscosity (308.15 K, x1 = 0.03563): 0.505 ± 0.011 mPa·s
- viscosity (308.15 K, x1 = 0.03955): 0.526 ± 0.011 mPa·s
- viscosity (313.15 K, x1 = 0.004109): 0.35 ± 0.007 mPa·s
- viscosity (313.15 K, x1 = 0.008148): 0.363 ± 0.008 mPa·s
- viscosity (313.15 K, x1 = 0.01217): 0.38 ± 0.008 mPa·s
- viscosity (313.15 K, x1 = 0.01616): 0.403 ± 0.009 mPa·s
- viscosity (313.15 K, x1 = 0.02022): 0.413 ± 0.009 mPa·s
- viscosity (313.15 K, x1 = 0.02407): 0.433 ± 0.009 mPa·s
- viscosity (313.15 K, x1 = 0.02797): 0.445 ± 0.009 mPa·s
- viscosity (313.15 K, x1 = 0.03172): 0.464 ± 0.01 mPa·s
- viscosity (313.15 K, x1 = 0.03563): 0.481 ± 0.01 mPa·s
- viscosity (313.15 K, x1 = 0.03955): 0.5 ± 0.011 mPa·s
- viscosity (318.15 K, x1 = 0.004109): 0.336 ± 0.007 mPa·s
- viscosity (318.15 K, x1 = 0.008148): 0.348 ± 0.007 mPa·s
- viscosity (318.15 K, x1 = 0.01217): 0.364 ± 0.008 mPa·s
- viscosity (318.15 K, x1 = 0.01616): 0.386 ± 0.008 mPa·s
- viscosity (318.15 K, x1 = 0.02022): 0.395 ± 0.008 mPa·s
- viscosity (318.15 K, x1 = 0.02407): 0.415 ± 0.009 mPa·s
- viscosity (318.15 K, x1 = 0.02797): 0.425 ± 0.009 mPa·s
- viscosity (318.15 K, x1 = 0.03172): 0.443 ± 0.009 mPa·s
- viscosity (318.15 K, x1 = 0.03563): 0.459 ± 0.01 mPa·s
- viscosity (318.15 K, x1 = 0.03955): 0.478 ± 0.01 mPa·s
- viscosity (323.15 K, x1 = 0.004109): 0.323 ± 0.007 mPa·s
- viscosity (323.15 K, x1 = 0.008148): 0.334 ± 0.007 mPa·s
- viscosity (323.15 K, x1 = 0.01217): 0.349 ± 0.007 mPa·s
- viscosity (323.15 K, x1 = 0.01616): 0.37 ± 0.008 mPa·s
- viscosity (323.15 K, x1 = 0.02022): 0.379 ± 0.008 mPa·s
- viscosity (323.15 K, x1 = 0.02407): 0.398 ± 0.008 mPa·s
- viscosity (323.15 K, x1 = 0.02797): 0.407 ± 0.009 mPa·s
- viscosity (323.15 K, x1 = 0.03172): 0.42 ± 0.009 mPa·s
- viscosity (323.15 K, x1 = 0.03563): 0.437 ± 0.009 mPa·s
- viscosity (323.15 K, x1 = 0.03955): 0.456 ± 0.01 mPa·s
